Columns and labels:
[1] = Density of the pure solvent; assay type: physicochemical
[2] = test system: ethanologen (Ethanol Red); assay: Biocompatibility test, ethanologen: glucose consumption in the presence of test solvent; conditions: text summary of Tables 3-6

CCCCOP(=O)(OCCCC)OCCCC
density ([1]; Table 7): 0.979 | density ([1]; pure solvent): 0.979 | uptake of glucose with yeast [2]: completely inhibited

From patent publication US9469584B2, “Method for producing butanol using extractive fermentation” (Butamax Advanced Biofuels LLC, priority 2013, dated 2016)
